The list shows a part of the results, in another mix than the full data. Activity calls are given as the source filed them.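 The calls were made as follows: active = percent inhibition above the average of all tested compounds plus 3 SD, set per screening campaign (cut at about 16% in these data); inactive = the rest.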

By UniProt entry, the sequences of proteins in these tests, tags left out.
UniProt P14735, whole entry, looked up: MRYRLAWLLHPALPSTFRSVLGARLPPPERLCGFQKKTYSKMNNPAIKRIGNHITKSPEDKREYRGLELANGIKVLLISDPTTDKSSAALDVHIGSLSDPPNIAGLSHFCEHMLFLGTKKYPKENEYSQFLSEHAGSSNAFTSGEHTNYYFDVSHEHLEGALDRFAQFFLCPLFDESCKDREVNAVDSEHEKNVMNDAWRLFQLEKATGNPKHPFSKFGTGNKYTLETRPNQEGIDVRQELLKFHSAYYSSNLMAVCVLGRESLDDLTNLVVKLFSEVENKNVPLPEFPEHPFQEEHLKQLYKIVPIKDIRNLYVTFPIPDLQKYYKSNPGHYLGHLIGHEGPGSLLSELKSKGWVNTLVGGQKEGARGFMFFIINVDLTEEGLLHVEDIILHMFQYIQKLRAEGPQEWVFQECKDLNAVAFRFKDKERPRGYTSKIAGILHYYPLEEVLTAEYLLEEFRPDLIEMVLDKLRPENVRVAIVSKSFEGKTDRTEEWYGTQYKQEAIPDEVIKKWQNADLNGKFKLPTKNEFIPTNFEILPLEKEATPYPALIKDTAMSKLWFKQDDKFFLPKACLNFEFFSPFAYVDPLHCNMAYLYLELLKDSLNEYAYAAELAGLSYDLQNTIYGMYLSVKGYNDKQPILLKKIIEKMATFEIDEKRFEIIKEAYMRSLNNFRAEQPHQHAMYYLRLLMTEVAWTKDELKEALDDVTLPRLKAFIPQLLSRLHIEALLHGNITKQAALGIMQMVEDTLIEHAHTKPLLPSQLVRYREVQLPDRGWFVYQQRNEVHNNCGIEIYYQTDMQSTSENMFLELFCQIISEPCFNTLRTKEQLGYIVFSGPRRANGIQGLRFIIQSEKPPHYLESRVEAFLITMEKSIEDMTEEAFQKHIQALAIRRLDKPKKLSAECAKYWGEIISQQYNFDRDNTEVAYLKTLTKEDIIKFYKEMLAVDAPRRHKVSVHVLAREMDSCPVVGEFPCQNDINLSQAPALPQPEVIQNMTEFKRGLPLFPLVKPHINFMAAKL

For the assay, the target named is Insulin-degrading enzyme (Homo sapiens) (UniProt P14735). Briefly: human IDE inhibitors in live cells, primary screen, fluorescence polarization, HEK cells, FAbetaB substrate (AID 434962).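 Also: IDE supplied by intact live HEK cells; FP after avidin binding of uncleaved biotin substrate so inhibition keeps polarization high; 0% = DMSO wells and 100% = 60 µM reference IDE inhibitor Ii1.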 To be noted: FAbetaB cleavage, at 5.59 µM, active compounds read high. (Fluorescence polarisation rises when a labelled molecule tumbles more slowly, as on binding a larger partner.)
Take `CC(=O)NC(SC(=S)N(C)C)C(Cl)(Cl)Cl` (stereo not drawn): the inhibition was inactive: -1.17%. For the compound `O=[As](O)(c1ccccc1)c1ccc(O)cc1`, the inhibition was inactive: -3.4%. With `Nc1ccc([As](=O)(O)c2ccc([N+](=O)[O-])cc2)cc1`, the inhibition is inactive: -2.54%. The result for `C(Cc1nn[nH]n1)Cc1nn[nH]n1` reads inactive: -0.91%. In the case of `O=C(OC1CN2CCC1CC2)c1cccc(Cl)c1` (stereo not drawn), the inhibition is inactive: 1.21%.

In the case of `O=P(Nc1ccccn1)(c1ccc(Br)cc1)c1ccc(Br)cc1`, the inhibition is inactive: -0.16%. In the case of `CN(C)C1(CNC(=O)c2ccc(Cl)c(S(N)(=O)=O)c2)CCCCC1`, the inhibition is inactive: 4.83%. As for `C[C@H]1OP(=O)(Oc2ccccc2)[C@H](O)[C@H](O)[C@H]1N=[N+]=[N-]` (stereo partly drawn), the inhibition is inactive: -0.46%. The result for `O=P(Nc1nc2ccccc2s1)(c1ccccc1)c1ccccc1` reads inactive: 0.19%; that for `O=P1(Nc2ncccn2)COc2ccccc2OC1`, inactive: 0.05%; that for `O=P1(Nc2ccc(Br)cn2)COc2ccccc2OC1`, inactive: 7.61%. For `NS(=O)(=O)c1cccc(NC(=O)COC(=O)C(O)(c2ccccc2)c2ccccc2)c1` the value was inactive: -0.83%. For `O=[As](O)(c1cccs1)c1cccs1` the value was inactive: -1.73%. As for `Cc1ccc(OCC(=O)OC2CN3CCC2CC3)cc1` (stereo not drawn), the inhibition is inactive: 6.66%.

As for `Nc1cccc([As](=O)(O)c2ccccc2)c1`, the inhibition is inactive: 2.02%. The result for `CC1CCC(C(C)C)C(OP(=O)(Nc2ccccn2)c2ccccc2)C1` (stereo not drawn) reads inactive: 1.71%; that for `Cc1ccc(C(=O)OC2CN3CCC2CC3)cc1` (stereo not drawn), inactive: 1.09%; that for `Cc1nn(-c2ccccc2)c2c1P(=O)(N1CCOCC1)N(C)C(c1ccccc1)=N2` (stereo not drawn), inactive: 5.49%. On to `O=C(/C=C/c1ccccc1)OC1CN2CCC1CC2` (stereo not drawn), for which the inhibition was inactive: 6.03%. On to `CN(C)C1(CNC(=O)c2ccc(S(C)(=O)=O)cc2)CCCCC1`, for which the inhibition was inactive: -0.45%. As to `COc1ccccc1CNC(=O)COC(=O)C(O)(c1ccccc1)c1ccccc1`, the inhibition was inactive: -1.11%. For the compound `CC1(CBr)Cn2c(nc3ccccc3c2=O)S1` (stereo not drawn), the inhibition was inactive: 2.87%. As to `O=[As](O)(c1ccccc1Br)c1ccccc1Br`, the inhibition is inactive: 3.62%. For `CC(C)/C=N\N=C(\N)N[N+](=O)[O-]`, the inhibition is inactive: 7.1%. The result for `CN(C(=O)Cc1ccc(Cl)c(Cl)c1)[C@@H]1CCCC[C@H]1N1CCCC1` reads inactive: 2.64%; that for `CN(CCCl)Cc1cc(Cl)c(NC2=NCCN2)c(Cl)c1`, inactive: 1.47%; that for `CCOP(=O)(Nc1ccc(C)cn1)OCC`, inactive: 4.86%.

Consider `CCOP(=O)(NC(=NC(C)c1ccccc1)NC(C)c1ccccc1)OCC` (stereo not drawn), for which the inhibition was inactive: 7.2%. For `O=P1(Nc2ccccn2)COc2ccccc2OC1` the value was inactive: 3.83%. For `CCC1=CC2Cc3nc4ccc(Cl)cc4c(N)c3C(C1)C2` (stereo not drawn) the value was inactive: -2.31%; for `CC(C)(C)C(=O)NC(Sc1ncccn1)C(Cl)(Cl)Cl` (stereo not drawn), inactive: 4.82%; for `Clc1n[nH]nc1-c1nn[nH][15n]1`, inactive: 1.68%.

For the compound `CCCOP(=S)(Nc1nc(N)cc(=O)[nH]1)OCCC`, the inhibition was inactive: 1.46%. For `Nc1cccc2c([As](=O)(O)O)cccc12` the value was inactive: -1.87%; for `Cc1ccc(NCCc2c([N+](=O)[O-])cc([N+](=O)[O-])cc2[N+](=O)[O-])cc1`, inactive: 4.33%; for `CCOP(=O)(Nc1cccc2ccccc12)OCC`, inactive: 1.69%. For `COc1cc(C2NCCC3(OCCO3)C2(C)C)cc(OC)c1OC` (stereo not drawn) the value was inactive: 5.03%.

For `CS(=O)(=O)c1ccc(Cl)c(NC(=O)COC(=O)C(O)(c2ccccc2)c2ccccc2)c1`, the inhibition is inactive: 0.12%. As for `COc1cc(C(=O)NCC2(N3CCOCC3)CCCCC2)cc(Cl)c1OC(C)C`, the inhibition was inactive: 5.31%. `O=[As](O)(O)c1cccnc1`: the inhibition is inactive: 2.98%. For `O=C(OC1CN2CCC1CC2)c1ccc(Cl)cc1` (stereo not drawn), the inhibition is inactive: -3.24%.

With `O=[As](O)(c1cccc(O)c1)c1cccc(O)c1`, the inhibition is inactive: -6.37%. For `Cc1cccc(OCC(=O)OC2CN3CCC2CC3)c1` (stereo not drawn) the value was inactive: 3.17%; for `NC(=O)Nc1ccc([As](=O)(O)O)cc1`, inactive: -1.82%; for `CN(C(=O)Cc1ccc(Cl)c(Cl)c1)[C@H]1CC[C@@]2(CCCO2)C[C@@H]1N1CCCC1`, inactive: -0.15%.

Consider `CN(C)C(=O)c1cc([N+](=O)[O-])cc2c1-c1c(cc([N+](=O)[O-])cc1[N+](=O)[O-])C2=O`, for which the inhibition was inactive: 6.55%.

As for `O=[N+]([O-])c1ccc2c(c1)nnn2O`, the inhibition was inactive: -2.2%. As for `CCOP1(=S)c2c(C)nn(CCC#N)c2N=C(c2ccc(F)cc2)N1C` (stereo not drawn), the inhibition is inactive: 0.47%. As for `CN(C(=O)Cc1ccccc1)[C@@H]1CC[C@]2(CCCO2)C[C@H]1N1CCCC1`, the inhibition was inactive: 9.8%. For the compound `N#CCCN(C(=O)COC(=O)C(O)(c1ccccc1)c1ccccc1)c1ccc(F)cc1`, the inhibition was inactive: -0.05%. The result for `CS(=O)(=O)c1cc([N+](=O)[O-])c2no[n+]([O-])c2c1` reads inactive: -2.75%; that for `O=P(Nc1nccs1)(c1ccccc1)c1nc2ccccc2s1` (stereo not drawn), inactive: 12.7%. Take `O=P(Nc1nccs1)(Oc1ccccc1)Oc1ccccc1`: the inhibition is inactive: -1.94%. With `CCOP1(=S)c2c(C)nn(CCC#N)c2N=C(c2ccccc2F)N1C` (stereo not drawn), the inhibition was inactive: -3.15%. Consider `Nc1ccccc1[As](=O)(O)c1ccccc1`, for which the inhibition is inactive: -0.87%. Turning to `O=C(O)COc1ccc([As](=O)(O)O)cc1[N+](=O)[O-]`, the inhibition is inactive: 4.01%. In the case of `CC(C)c1ccc(OP(=O)(Nc2ccccn2)Oc2ccccc2F)cc1` (stereo not drawn), the inhibition is inactive: 4.78%.

Turning to `ClCCSc1nnc(-c2cccnc2)o1`, the inhibition was inactive: 0.5%.

Take `O=[N+]([O-])c1cc([N+](=O)[O-])c(-c2ccn[nH]2)s1`: the inhibition is inactive: 6.17%. For `CCN(CC)C(=S)SC(NC=O)C(Cl)(Cl)Cl` (stereo not drawn), the inhibition is inactive: 0.52%. The result for `CC(C)NC(=O)NP(=O)(Oc1ccccc1)Oc1ccccc1` reads inactive: 1.39%. For `COc1cc(C(=O)NCC2(N3CCOCC3)CCCCC2)ccc1OCC(C)C` the value was inactive: 1.12%. Turning to `C[As](=O)(O)c1cccc(C(=O)O)c1`, the inhibition was inactive: 3.35%. For `O=[As](O)(c1ccc(O)cc1)c1ccccc1O` the value was inactive: -0.13%; for `Cc1ccc2nc3c(c(C)c2c1)CC(C(Cl)Cl)S3` (stereo not drawn), inactive: 5.19%.

Take `Cc1ccc(OP(=O)(Nc2ccc([N+](=O)[O-])cn2)Oc2ccc(C)cc2)cc1`: the inhibition is inactive: -0.36%.

For `COc1ccc(N/C(=N/P(=O)(N2CCOCC2)N2CCOCC2)N2CCOCC2)cc1`, the inhibition is inactive: -2.61%. For `Cc1cc(=O)[nH]c(N[N+](=O)[O-])n1` the value was inactive: -2.94%; for `O=C(OC1CN2CCC1CC2)C12CC3CC(CC(C3)C1)C2` (stereo not drawn), inactive: 2.03%. Consider `Cc1c2c(nc3ccccc13)SC(C(Cl)Cl)C2` (stereo not drawn), for which the inhibition was inactive: -2.42%. The result for `COc1cc(I)ccc1[As](=O)(O)O` reads inactive: 5.05%; that for `COc1ccc2nc(NP(=O)(c3ccccc3)c3ccccc3)sc2c1`, inactive: 2.66%. The result for `CCOC(=O)c1ccc(NC(=O)C(C)(CCl)SC)cc1` (stereo not drawn) reads inactive: -1.01%; that for `O=C(OC1CN2CCC1CC2)c1cccc([N+](=O)[O-])c1` (stereo not drawn), inactive: 3.42%; that for `CCC(C)N(CC(C)C)C(=S)SC(NC(C)=O)C(Cl)(Cl)Cl` (stereo not drawn), inactive: -1.84%.

`COP1(=S)c2c(C)nn(CCC#N)c2N=C(c2ccc(F)cc2)N1C` (stereo not drawn): the inhibition was inactive: 3.37%.

For the compound `O=C(Nc1ccncc1[N+](=O)[O-])c1ccc([N+](=O)[O-])cc1[N+](=O)[O-]`, the inhibition was inactive: -0.03%. For the compound `O=C(COc1ccccc1)OC1CN2CCC1CC2` (stereo not drawn), the inhibition was inactive: 2.15%.

Turning to `CCOC(=O)Nc1cccc([As](=O)(O)O)c1`, the inhibition is inactive: -1.87%. For `O=P(Nc1ccccn1)(c1cccc2ccccc12)c1cccc2ccccc12`, the inhibition is inactive: -2.35%. The result for `Cc1cc(SC(NC=O)C(Cl)(Cl)Cl)ncn1` (stereo not drawn) reads inactive: 2.42%; that for `CCOC(=O)Nc1ccc([As](=O)(O)O)c(O)c1`, inactive: -5.87%. On to `Cc1cc(SC(NC(=O)c2ccccc2)C(Cl)(Cl)Cl)nc(C(C)C)n1` (stereo not drawn), for which the inhibition is inactive: -2.58%.

For orientation: inhibition means the relative decrease from the control value, in per cent.

For the origin of these results see PubChem BioAssay AID434962 (The Scripps Research Institute Molecular Screening Center, 2010).
